# The entries are a selection whose mix differs from that of the whole data set.
# Legend:
# [1] = target: T1, Protein deacetylase HDAC6 (Homo sapiens) (UniProt Q9UBN7); details: at 10 µM
# T1 sequence (whole entry): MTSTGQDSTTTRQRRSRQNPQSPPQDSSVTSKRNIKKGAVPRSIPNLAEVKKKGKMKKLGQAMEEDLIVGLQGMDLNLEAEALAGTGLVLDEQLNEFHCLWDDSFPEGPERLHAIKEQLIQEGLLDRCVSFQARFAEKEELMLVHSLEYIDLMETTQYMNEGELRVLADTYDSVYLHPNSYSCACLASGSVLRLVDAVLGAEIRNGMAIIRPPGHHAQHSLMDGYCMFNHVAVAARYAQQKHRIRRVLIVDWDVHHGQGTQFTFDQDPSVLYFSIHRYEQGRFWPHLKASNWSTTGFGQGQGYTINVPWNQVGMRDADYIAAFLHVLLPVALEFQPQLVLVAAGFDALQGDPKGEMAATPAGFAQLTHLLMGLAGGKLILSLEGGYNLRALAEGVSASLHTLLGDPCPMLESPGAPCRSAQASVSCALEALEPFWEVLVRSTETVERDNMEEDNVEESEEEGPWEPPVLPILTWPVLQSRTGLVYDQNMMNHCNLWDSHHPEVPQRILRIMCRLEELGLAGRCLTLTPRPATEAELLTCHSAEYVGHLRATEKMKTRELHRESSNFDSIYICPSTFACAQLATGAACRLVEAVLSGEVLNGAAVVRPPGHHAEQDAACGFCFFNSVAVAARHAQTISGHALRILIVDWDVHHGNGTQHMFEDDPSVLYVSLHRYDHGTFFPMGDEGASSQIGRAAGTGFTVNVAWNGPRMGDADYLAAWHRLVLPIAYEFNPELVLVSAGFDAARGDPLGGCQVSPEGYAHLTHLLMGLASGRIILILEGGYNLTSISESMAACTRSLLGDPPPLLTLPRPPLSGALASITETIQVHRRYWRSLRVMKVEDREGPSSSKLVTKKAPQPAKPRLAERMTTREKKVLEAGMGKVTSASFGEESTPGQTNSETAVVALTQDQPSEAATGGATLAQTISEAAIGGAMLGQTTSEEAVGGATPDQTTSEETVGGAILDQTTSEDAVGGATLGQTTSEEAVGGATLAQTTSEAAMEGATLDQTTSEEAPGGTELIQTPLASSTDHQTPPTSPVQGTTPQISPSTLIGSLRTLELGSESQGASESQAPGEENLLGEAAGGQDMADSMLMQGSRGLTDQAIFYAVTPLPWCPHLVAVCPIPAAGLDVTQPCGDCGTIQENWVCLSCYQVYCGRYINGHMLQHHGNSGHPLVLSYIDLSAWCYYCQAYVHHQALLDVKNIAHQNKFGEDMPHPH
# [2] = target: T1, Protein deacetylase HDAC6 (Homo sapiens); details: at 10 µM; remark: listed apart in the source
SMILES,inhibition [1],inhibition [2]
CCC(CO[N+](=O)[O-])(CO[N+](=O)[O-])CO[N+](=O)[O-],14.1%,1.36%
CN(C)CCS,-8.55%,1.8%

# Reference: ChEMBL document CHEMBL4808148, “HDAC6 screening dataset using tau-based substrate in an enzymatic assay yields selective inhibitors and activators” (2021)
